Reference: patent US12329765B2, “Targeted nanoparticle for the treatment of traumatic brain injury and other CNS diseases” (priority 2021, dated 2025)

Columns and labels:
[1] = In vivo toxicity: body weight examinations; conditions: rat
Description: Before treatment, body weight was determined for all the animals. During the course of observation period of 35 days, the animals were followed up twice daily for symptoms of any adverse effect and were physically examined for the sign of morbidity throughout the study period.
On day 0, 15 and 35, all the animals were weighed, and their weights were recorded.

[2] = system: liver, kidneys, lungs, and spleen; conditions: none of the changes significant

SMILES: CN(C)c1ccc(O)c2c1C[C@H]1C[C@H]3[C@H](N(C)C)C(O)=C(C(N)=O)C(=O)[C@@]3(O)C(O)=C1C2=O [minocycline, Minocycline]
- apparent toxicity on repeated administration [1]: did not cause any apparent toxicity
- liver pathologies (infiltrating cell clusters, suspicious necrotic hepatic cells) [2]: Mild or negligible liver pathologies
